Read-outs that look alike come from different tables or passages of the source.

Here are results for two substances from US6517846B2, “Cosmetic composition” (Kyowa Hakko Kogyo Co., Ltd., priority 2000, dated 2003).

One data set deals with IL-1α. Conditions: mean n = 2.
Data set [1] deals with human skin (forearm crook, females with roughening skin). Conditions: 78 hours after the first treatment on day 1, 5 w/v % solution.
Data set [2] shares this test system.
The test system of data set [3] is human subjects (washing hands).
Data set [4] deals with human normal keratinocytes.

Consider “Triethanolamine N-Cocoyl-L-glutaminate [GMT]”, for which the IL-1α with IL-1α (10 ppm test compound) is recorded as 137.25 pg/well; in the data set on IL-1α (30 ppm test compound) it was 132.43 pg/well; with IL-1α (60 ppm test compound) it was 197.25 pg/well; in the data set with IL-1α (100 ppm test compound), 249.22 pg/well; in the data set on IL-1α (300 ppm test compound) it was 311.18 pg/well. In addition, the figures for the Desquamation entry in data set [1] and in data set [1] (listed as N-cocoyl-L-glutaminate) were “A little” and “lowest”, respectively. For the same substance, in data set [1], the Erythema entry is recorded as “None”. Besides, in data set [2] (next day after the 4-day treatment, Control = 100, mean n = 4), the “Relative water transpiration rates” value stood at 110%. For the same substance, the “water transpiration rate, in words” value in data set [2] (summary of Table 5) is “lowest”. The “Irritation (after use), average score” value in data set [3] (grades scored, 1 Very irritative, 5 Very mild, mean n = 5) was found to be 0. Further, in data set [3] (summary of Table 6), the “irritation on washing, in words” value is listed as “low irritation”.
In the case of “Sodium salt of N-cocoylglutamine [sodium salt of N-cocoyl-L-glutamine]”, the “suppressive effects on cytotoxicity, compared with the triethanolamine salt” value in data set [4] was “equivalent”.
